The values below come from patent US20250353859A1, “COMPOUNDS AS CCR6 INHIBITORS” (Hoffmann-La Roche Inc., priority 2023, published 2025).

Sequences of proteins named here, by UniProt entry; tags and fusion partners are left off.
UniProt P51684, whole entry: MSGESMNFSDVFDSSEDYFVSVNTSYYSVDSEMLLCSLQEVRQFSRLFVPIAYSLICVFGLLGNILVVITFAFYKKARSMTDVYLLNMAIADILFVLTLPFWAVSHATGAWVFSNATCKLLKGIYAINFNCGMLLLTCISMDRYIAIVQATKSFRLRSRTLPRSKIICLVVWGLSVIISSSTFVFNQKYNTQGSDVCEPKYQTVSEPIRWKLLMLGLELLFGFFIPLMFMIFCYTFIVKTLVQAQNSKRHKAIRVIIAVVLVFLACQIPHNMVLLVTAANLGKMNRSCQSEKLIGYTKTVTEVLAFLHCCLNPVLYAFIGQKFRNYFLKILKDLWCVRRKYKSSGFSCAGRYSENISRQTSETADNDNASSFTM

The experiment addresses human CCR6 (Homo sapiens, UniProt P51684). Put plainly: Human CCR6-CRE reporter assay. The following applies: read-out: Activity in human CCR6-CRE reporter assay; scaffold variant X = O, R1 = CH3.

On to `COc1ccc(NC2CCN(S(=O)(=O)c3ccc(OC)cc3)CC2)cc1`, for which the IC50 was more than 20 µM.
